Values of other authors as cited in patent publication US20090203708A1, “NOVEL SUBSTITUTED-1-H-QUINAZOLINE-2,4-DIONE DERIVATIVES, PREPARATION METHOD THEREOF AND PHARMACEUTICAL COMPOSITION CONTAINING THE SAME” (Korea Research Institute of Chemical Technology, priority 2006, published 2009).

Protein sequences, listed by entry. Tags and fused reporters are not part of them.
UniProt P50406, whole entry: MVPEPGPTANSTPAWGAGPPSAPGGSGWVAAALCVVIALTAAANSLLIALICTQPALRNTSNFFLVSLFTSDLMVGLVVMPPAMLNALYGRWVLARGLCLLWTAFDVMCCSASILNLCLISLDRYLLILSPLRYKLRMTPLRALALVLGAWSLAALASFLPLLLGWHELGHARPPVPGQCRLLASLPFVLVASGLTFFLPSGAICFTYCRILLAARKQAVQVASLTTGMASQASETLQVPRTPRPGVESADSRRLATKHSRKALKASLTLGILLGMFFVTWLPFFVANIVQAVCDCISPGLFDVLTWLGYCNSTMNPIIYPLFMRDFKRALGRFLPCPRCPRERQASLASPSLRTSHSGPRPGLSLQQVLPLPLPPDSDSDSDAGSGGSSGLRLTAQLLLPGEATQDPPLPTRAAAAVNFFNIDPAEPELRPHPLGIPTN

Key:
5-HT6 receptors = 5-HT6 receptors (Homo sapiens, UniProt P50406); settings: read-out: Ki for 5-HT6 receptors; literature; cited from earlier work
[1] = literature; cited from earlier work
[2] = tested on: other 5-HT receptors / other receptor/binding sites; settings: literature; cited from earlier work

SMILES: COc1ccc(NS(=O)(=O)c2ccc(Br)cc2)cc1N1CCN(C)CC1
- Ki (5-HT6 receptors): 5 nM
- bioavailability (in words) [1]: low bioavailability
- brain penetration [1]: 25%
- clearance (in words) [1]: rapid blood clearance
- affinity for 50 other receptor/binding sites [2]: no measurable affinity
- selectivity over 10 other 5-HT receptors [2]: ≥ 50 fold
